Our source for the Emax and Selectivity ratio values is ChEMBL document CHEMBL1143255, “Standard protecting groups create potent and selective kappa opioids: salvinorin B alkoxymethyl ethers” (Bioorg Med Chem, 2008).

Amino acid sequences for entries named in this document (tags omitted). A change or cut given only in a name is not applied to a line headed by its entry.
UniProt P41145: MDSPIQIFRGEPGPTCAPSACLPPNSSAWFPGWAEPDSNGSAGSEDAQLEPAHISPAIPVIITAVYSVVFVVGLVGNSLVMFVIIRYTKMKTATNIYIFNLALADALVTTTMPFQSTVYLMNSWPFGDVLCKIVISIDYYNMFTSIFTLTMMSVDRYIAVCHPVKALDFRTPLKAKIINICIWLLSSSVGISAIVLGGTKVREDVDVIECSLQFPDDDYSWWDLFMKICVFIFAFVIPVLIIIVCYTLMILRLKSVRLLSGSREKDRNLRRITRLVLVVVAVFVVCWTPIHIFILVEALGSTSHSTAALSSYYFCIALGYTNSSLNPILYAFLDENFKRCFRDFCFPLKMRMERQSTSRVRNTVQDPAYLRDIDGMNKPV

The Emax is the size of the effect at its maximum, as opposed to the concentration needed.

The target in assay [1] is Kappa-type opioid receptor (Homo sapiens, UniProt P41145). Kind of assay: Agonist activity at human kappa opioid receptor expressed in CHO cells assessed as stimulation of [35S]GTPgammaS binding relative to U50488H. Format: functional, cell-based. In a few lines: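 Potency and efficacy from [35S]GTPγS binding to membranes of CHO cells stably expressing human κ receptor; testing blinded to compound identity and molecular mass.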
On the technique in general: Binding of GTPγS marks nucleotide exchange on a G protein.

Assay [2] is described as follows: Selectivity for human kappa opioid receptor over rat mu opioid receptor.
The nature of assay [3]: Selectivity for human kappa opioid receptor over mouse delta opioid receptor.

Consider `COCO[C@H]1C[C@@H](C(=O)OC)[C@]2(C)CC[C@H]3C(=O)O[C@H](c4ccoc4)C[C@]3(C)[C@H]2C1=O`, for which the maximal response (Emax) in assay [1] came out at 81%. For the same compound, the Selectivity ratio in assay [2] and in assay [3] was greater than 1600 each time.
